Values quoted from earlier work in publication PMC6708598.

Target: GFP (Aequorea victoria) [GFP: P42212]

## GFP (from UniProt P42212)
  Kd: 100 µM
